# Measured values: US20220009914A1, “Analogs of Nitrofuran Antibiotics to Combat Resistance” (The Trustees of Indiana University, priority 2020, published 2022)
# Chains of the proteins cited; added tags and fusions are not shown. Residues count along the entry.
# UniProt P0A6F5, 2-548: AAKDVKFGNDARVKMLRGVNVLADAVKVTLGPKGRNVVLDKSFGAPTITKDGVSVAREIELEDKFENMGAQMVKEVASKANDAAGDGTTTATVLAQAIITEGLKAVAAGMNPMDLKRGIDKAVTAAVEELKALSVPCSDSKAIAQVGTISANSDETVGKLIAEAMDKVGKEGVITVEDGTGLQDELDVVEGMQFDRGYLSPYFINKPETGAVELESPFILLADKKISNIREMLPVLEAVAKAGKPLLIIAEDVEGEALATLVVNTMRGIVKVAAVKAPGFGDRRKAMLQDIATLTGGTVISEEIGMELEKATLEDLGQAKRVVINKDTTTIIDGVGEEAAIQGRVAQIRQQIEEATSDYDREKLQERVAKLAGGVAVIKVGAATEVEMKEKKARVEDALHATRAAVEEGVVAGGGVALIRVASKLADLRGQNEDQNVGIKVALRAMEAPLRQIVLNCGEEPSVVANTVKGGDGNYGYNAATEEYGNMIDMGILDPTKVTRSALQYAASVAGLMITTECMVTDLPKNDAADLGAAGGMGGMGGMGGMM
# Columns and labels:
# Format in all cases: biochemical
# E. coli GroEL/ES [1] = molecular target: T1, E. coli GroEL/ES (Escherichia coli, UniProt P0A6F5); test: GroEL/ES-mediated dRho refolding assay
# T1 construct: made in house; host or cells: GroEL in NEB 5-alpha E. coli; GroES in E. coli BL21 (DE3)
# Experimental: Evaluating compounds for inhibition in the GroEL/ES-mediated dRho refolding assay. Reagent preparation: For this assay, five primary reagent stocks were prepared: 1) GroEL/ES-dRho binary complex stock; 2) ATP initiation stock; 3) thiocyanate enzymatic assay stock; 4) formaldehyde quench stock; 5) ferric nitrate reporter stock. Denatured rhodanese (dRho) was prepared by 3-fold dilution of rhodanese (Roche product #R^1756, diluted to 10 mg/mL with H2O) with denaturant buffer (12 M Urea, 50 mM Tris-HCl, pH 7.4, and 10 mM DTT). Rhodanese was completely denatured by incubating at room temperature for >45 min. […]
# Assay Protocol: First, 10 μL aliquots of the GroEL/ES-dRho complex stock were dispensed into clear, flat-bottom 384-well polystyrene plates. […] The reporter reaction was quenched by adding 10 μL of the formaldehyde quench stock, and then 40 μL of the ferric nitrate reporter stock was added to quantify the amount of thiocyanate produced during the enzymatic reporter reaction, which is proportional to the amount of dRho refolded by GroEL/ES. After incubating at room temperature for 15 min, the absorbance by Fe(SCN)3 was measured at 460 nm using a Molecular Devices SpectraMax Plus384 microplate reader. […]
# E. coli GroEL/ES [2] = molecular target: T1, E. coli GroEL/ES; test: GroEL/ES-mediated dMDH refolding assay in the presence of E. coli NfsB nitroreductase
# Experimental: Evaluating compounds for inhibition in the GroEL/ES-mediated dMDH refolding assay and native MDH activity counter-screen in the presence of E. coli NfsB nitroreductase. These assays were performed nearly identically to those mentioned above, but with a couple distinct modifications. For both assays, 10 μg/mL of the E. coli NfsB nitroreductase enzyme (Sigma product #N9284) was added to the initial GroEL/ES-dMDH solution. For the GroEL/ES-dMDH refolding assay, after stamping with compounds, 10 μL of a 2.4 mM NADH solution was added, followed by a 10 minute incubation period at 37° C. to bioactivate the nitrofuran analogs. The remainder of the assay was conducted as in our standard protocol where no NfsB nitroreductase was present. […] For the native MDH activity counter-screen in the presence of E. coli NfsB nitroreductase, the assay was performed as described above for the GroEL/ES-dMDH refolding assay with NfsB; however, compound addition to the assay plates was conducted after the EDTA quench step, followed by a 10 minute incubation period at 37° C. to bioactivate the nitrofuran analogs. […] Results presented represent the averages of IC50 values obtained from at least four replicates in each assay.
# Evaluating analogs for inhibiting GroEL/ES-mediated substrate refolding functions in the presence of the E. coli NfsB type-1 nitroreductase. […]
# E. coli GroEL = molecular target: T2, E. coli GroEL (Escherichia coli, UniProt P0A6F5); test: GroEL-mediated ATPase assay
# T2 construct: made in house; host or cells: NEB 5-alpha E. coli
# Experimental: Evaluating compounds for inhibition in the GroEL-mediated ATPase assay. All compounds were evaluated for inhibiting E. coli GroEL-mediated ATPase activity as per our previously reported procedure although employing only GroEL in solution and not containing GroES or denatured MDH. Evaluating compounds for inhibition in the GroEL-mediated ATPase assay.
# Reagent preparation: For this assay, four primary reagent solutions were prepared: 1) GroEL protein solution; 2) ATP initiation solution; 3) EDTA quench solution; 4) malachite green reporter solution. […]
# Assay Protocol: First, 10 μL aliquots of the GroEL protein solution were dispensed into clear, flat-bottom 384-well polystyrene plates. […] The absorbance of the malachite green-phosphate complex was measured at 600 nm using a Molecular Devices SpectraMax Plus384 microplate reader. A second set of baseline control plates were prepared analogously, but without GroEL protein solution, to correct for possible interference from compound absorbance or turbidity. […]
# Evaluating analogs for inhibiting GroEL-mediated ATPase activity. […] Malachite green was then added to the assay to bind and detect free phosphates in solution (absorbance detection at k=600 nm). If analogs inhibited ATPase activity, then there would be no free phosphates for malachite green to bind, leading to minimal absorbance at 600 nm.
# E. coli GroEL/ES [3] = molecular target: T1, E. coli GroEL/ES; test: GroEL/ES-mediated dMDH refolding assay
# Experimental: Evaluating compounds for inhibition in the GroEL/ES-mediated dMDH refolding assay. All compounds were evaluated for inhibiting E. coli GroEL/ES-mediated refolding of the denatured MDH reporter enzyme. Reagent preparation: For these assays, four primary reagent stocks were prepared: 1) GroEL/ES-dMDH binary complex stock; 2) ATP initiation stock; 3) EDTA quench stock; 4) MDH enzymatic assay stock. Denatured MDH (dMDH) was prepared by 2-fold dilution of MDH (5 mg/ml, soluble pig heart MDH from Roche, product #10127248001) with denaturant buffer (7 M guanidine-HCl, 200 mM Tris, pH 7.4, and 50 mM DTT). MDH was completely denatured by incubating at room temperature for >45 min. […]
# Assay Protocol: First, 30 μL aliquots of the GroEL/ES-dMDH binary complex stocks were dispensed into clear, 384-well polystyrene plates. […] A340 nm measurements were recorded at 0.5 minutes (start point) and at successive time points until the amount of NADH consumed reached ˜90% (end point, generally between 20-35 minutes).
# Evaluating analogs for inhibiting GroEL/ES-mediated substrate refolding functions. […] We first evaluated all test compounds in our standard GroEL/ES-mediated refolding assays that employ either malate dehydrogenase (MDH) or rhodanese (Rho) as the denatured substrate reporter enzymes. […]
smiles,measurement,setting,value
"O=C(N/N=C/c1ccc([N+](=O)[O-])o1)c1ccccc1Oc1ccccc1 [Compound 23, N′-((5-nitrofuran-2-yl)methylene)-2-phenoxybenzohydrazide]",IC50,E. coli GroEL/ES [1],83 µM
same,IC50,E. coli GroEL/ES [2],8.3 µM
same,IC50,E. coli GroEL,> 250 µM
same,IC50,E. coli GroEL/ES [3],85 µM
